Experimental data from patent publication US20170266133A1 (priority 2014, published 2017).

By UniProt entry, the sequences of proteins in these tests, tags left out.
UniProt P31645, whole entry: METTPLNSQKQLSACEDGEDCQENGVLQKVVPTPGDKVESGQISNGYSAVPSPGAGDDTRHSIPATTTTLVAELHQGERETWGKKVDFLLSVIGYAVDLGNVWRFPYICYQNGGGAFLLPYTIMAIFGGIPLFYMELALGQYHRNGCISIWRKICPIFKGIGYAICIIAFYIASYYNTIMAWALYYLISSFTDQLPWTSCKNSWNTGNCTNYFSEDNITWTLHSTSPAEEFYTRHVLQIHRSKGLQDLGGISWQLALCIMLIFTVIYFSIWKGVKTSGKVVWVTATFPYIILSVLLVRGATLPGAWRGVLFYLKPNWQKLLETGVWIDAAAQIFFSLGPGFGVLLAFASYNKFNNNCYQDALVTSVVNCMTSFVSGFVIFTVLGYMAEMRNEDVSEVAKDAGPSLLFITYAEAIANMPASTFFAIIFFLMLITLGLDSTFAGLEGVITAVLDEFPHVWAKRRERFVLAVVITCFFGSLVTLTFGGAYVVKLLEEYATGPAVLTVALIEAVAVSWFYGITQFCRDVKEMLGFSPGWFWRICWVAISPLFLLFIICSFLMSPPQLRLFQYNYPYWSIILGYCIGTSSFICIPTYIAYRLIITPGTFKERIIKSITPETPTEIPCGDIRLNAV

Target: human serotonin transporters (SERT) (Homo sapiens, UniProt P31645)
Assay: serotonin uptake inhibition
Format: biochemical
Excerpt: Dasotraline [(1R,4S)-4-(3,4-Dichlorophenyl)-1,2,3,4-tetrahydronaphthalen-1-amine] is a novel compound with DNRI pharmacology.

N[C@@H]1CC[C@@H](c2ccc(Cl)c(Cl)c2)c2ccccc21 [dasotraline, (1R,4S)-4-(3,4-Dichlorophenyl)-1,2,3,4-tetrahydronaphthalen-1-amine]
IC50: 15 nM
